According to patent US11124554B2, “Modified ligand-gated ion channels and methods of use” (Howard Hughes Medical Institute, priority 2016, dated 2021):
pEC50: −log10 of the molar value. Where two headings read alike, the source gives them in different places.

By UniProt entry, the sequences of proteins in these tests, tags left out. Chains listed by the source or under a name are the forms on record and can include a tag or linker.
UniProt P36544, with tags, fused parts or gaps: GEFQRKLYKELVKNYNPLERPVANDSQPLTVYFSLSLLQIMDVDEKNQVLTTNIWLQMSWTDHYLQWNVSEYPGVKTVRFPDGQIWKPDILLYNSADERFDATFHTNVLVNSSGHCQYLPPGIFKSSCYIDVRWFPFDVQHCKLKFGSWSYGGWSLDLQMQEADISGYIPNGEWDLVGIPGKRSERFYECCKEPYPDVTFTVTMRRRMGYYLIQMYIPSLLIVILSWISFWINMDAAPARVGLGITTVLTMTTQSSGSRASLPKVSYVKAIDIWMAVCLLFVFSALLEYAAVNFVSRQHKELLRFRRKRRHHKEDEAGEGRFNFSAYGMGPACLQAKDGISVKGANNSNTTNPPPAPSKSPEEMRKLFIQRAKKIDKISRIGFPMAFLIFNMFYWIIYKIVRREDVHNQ
UniProt P36544, with tags, fused parts or gaps Q79S/L131G: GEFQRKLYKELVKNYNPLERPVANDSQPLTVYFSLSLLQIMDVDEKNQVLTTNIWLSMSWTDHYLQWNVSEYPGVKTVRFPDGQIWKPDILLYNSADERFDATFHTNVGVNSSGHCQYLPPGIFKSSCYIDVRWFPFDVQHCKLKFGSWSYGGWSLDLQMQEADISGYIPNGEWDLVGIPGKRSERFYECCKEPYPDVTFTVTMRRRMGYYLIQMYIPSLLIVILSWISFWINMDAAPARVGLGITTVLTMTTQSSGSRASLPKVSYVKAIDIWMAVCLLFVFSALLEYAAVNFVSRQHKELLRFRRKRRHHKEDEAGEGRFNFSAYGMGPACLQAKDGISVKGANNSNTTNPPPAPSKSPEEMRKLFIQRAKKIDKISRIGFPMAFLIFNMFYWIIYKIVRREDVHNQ
UniProt P36544, with tags, fused parts or gaps L131G/Q139L/Y217F: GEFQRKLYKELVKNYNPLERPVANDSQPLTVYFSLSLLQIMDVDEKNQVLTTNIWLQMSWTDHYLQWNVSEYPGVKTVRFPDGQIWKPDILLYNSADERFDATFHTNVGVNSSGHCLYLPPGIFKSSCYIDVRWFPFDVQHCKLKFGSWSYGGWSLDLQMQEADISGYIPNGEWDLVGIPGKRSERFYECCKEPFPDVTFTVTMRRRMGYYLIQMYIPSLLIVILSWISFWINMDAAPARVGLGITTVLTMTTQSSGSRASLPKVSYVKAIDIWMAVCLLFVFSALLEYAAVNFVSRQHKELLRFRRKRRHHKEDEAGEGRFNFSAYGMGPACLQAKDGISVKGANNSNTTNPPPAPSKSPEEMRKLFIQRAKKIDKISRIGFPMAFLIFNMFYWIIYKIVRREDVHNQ
UniProt P36544, with tags, fused parts or gaps L131N: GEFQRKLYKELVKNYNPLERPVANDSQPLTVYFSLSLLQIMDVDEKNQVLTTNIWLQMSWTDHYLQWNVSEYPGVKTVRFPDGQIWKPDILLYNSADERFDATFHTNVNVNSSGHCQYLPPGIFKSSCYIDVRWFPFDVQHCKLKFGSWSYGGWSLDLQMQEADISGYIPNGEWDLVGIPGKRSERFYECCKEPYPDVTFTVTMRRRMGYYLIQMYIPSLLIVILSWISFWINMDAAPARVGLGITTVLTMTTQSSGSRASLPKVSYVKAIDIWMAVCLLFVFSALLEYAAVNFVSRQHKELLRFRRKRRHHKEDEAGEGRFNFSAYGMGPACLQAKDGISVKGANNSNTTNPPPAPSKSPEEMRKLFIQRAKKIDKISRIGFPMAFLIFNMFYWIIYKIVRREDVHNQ
UniProt P36544, with tags, fused parts or gaps Q79G/L131G: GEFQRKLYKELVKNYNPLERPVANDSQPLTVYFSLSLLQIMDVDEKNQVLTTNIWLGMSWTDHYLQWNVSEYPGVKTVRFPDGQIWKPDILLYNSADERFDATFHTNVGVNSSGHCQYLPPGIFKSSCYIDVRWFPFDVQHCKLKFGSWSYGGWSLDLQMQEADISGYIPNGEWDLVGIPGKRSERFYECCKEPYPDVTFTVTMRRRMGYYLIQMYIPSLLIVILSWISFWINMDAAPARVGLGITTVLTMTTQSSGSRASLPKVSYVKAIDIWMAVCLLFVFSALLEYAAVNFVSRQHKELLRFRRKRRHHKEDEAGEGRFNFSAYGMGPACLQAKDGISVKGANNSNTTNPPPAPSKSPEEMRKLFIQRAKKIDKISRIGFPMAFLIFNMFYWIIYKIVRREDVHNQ
UniProt P36544, with tags, fused parts or gaps Q79S/L131G/Q139L/Y217F: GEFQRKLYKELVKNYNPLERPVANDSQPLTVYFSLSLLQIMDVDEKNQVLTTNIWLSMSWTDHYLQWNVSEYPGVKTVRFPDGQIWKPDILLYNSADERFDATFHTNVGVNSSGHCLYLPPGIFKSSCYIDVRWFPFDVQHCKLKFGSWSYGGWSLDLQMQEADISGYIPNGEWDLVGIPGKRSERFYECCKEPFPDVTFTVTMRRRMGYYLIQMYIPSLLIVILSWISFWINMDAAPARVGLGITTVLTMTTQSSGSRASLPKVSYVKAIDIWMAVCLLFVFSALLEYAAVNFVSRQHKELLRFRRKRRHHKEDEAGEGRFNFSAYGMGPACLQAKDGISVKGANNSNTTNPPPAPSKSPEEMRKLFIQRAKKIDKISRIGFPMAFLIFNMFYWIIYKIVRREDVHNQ
UniProt P36544, with tags, fused parts or gaps L131M: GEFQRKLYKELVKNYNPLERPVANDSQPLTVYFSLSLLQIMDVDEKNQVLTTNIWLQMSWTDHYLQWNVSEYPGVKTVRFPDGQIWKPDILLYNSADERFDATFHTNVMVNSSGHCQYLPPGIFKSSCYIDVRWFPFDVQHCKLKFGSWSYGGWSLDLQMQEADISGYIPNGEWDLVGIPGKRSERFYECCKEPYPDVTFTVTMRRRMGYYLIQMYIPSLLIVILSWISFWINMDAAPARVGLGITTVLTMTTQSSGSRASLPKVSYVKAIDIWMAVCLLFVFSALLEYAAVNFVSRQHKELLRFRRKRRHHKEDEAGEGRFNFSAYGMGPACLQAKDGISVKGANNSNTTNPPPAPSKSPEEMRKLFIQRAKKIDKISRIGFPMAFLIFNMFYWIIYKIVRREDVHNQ
UniProt P36544, with tags, fused parts or gaps L131Q: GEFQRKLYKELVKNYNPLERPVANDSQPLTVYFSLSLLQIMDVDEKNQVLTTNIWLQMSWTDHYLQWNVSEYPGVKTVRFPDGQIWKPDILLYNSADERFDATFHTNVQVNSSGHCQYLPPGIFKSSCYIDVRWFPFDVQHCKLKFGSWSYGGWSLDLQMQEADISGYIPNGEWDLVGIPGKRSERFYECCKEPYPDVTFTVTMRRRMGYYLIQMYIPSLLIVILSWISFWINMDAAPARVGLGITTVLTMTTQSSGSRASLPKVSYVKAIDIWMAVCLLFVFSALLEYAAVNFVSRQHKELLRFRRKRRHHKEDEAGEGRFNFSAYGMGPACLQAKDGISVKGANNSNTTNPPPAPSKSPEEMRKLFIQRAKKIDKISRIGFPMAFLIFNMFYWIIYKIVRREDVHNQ
UniProt P36544, with tags, fused parts or gaps L131F: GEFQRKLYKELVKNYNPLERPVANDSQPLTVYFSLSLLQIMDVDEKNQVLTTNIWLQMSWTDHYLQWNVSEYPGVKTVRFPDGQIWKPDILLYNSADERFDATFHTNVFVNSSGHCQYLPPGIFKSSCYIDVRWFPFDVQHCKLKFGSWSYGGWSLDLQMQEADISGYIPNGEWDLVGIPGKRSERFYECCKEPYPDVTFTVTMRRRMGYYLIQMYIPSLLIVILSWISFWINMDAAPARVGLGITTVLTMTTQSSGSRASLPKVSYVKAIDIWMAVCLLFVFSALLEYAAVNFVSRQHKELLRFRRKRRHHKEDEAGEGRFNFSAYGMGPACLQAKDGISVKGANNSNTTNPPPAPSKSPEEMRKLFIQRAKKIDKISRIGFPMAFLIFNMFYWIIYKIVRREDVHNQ
UniProt P36544, with tags, fused parts or gaps L131G/Q139L/Y217F/T225I/M226I limits assumed: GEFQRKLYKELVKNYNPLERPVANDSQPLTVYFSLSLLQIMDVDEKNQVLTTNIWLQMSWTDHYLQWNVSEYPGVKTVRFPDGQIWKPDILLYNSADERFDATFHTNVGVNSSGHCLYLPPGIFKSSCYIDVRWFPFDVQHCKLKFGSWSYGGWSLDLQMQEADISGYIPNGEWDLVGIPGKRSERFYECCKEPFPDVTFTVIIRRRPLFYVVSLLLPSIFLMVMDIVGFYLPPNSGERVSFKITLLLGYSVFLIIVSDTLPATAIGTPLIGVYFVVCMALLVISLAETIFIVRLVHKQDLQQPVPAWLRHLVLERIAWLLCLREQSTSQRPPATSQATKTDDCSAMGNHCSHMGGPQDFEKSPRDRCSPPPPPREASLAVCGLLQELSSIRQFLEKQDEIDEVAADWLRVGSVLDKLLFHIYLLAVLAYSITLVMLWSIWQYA
UniProt P36544, with tags, fused parts or gaps T225I/M226I: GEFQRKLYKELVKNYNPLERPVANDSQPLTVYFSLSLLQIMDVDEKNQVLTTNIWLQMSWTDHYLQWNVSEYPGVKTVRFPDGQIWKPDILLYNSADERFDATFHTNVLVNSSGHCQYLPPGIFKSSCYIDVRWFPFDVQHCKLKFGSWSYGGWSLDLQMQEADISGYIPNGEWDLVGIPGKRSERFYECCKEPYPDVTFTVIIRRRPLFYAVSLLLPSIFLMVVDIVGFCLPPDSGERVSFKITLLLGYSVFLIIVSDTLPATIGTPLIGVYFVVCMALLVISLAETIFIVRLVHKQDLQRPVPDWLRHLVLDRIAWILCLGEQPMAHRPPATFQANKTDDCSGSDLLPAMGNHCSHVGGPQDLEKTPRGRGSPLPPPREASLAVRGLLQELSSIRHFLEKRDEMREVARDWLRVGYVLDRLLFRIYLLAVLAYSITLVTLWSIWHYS
UniProt P36544, with tags, fused parts or gaps Y115F/G175K: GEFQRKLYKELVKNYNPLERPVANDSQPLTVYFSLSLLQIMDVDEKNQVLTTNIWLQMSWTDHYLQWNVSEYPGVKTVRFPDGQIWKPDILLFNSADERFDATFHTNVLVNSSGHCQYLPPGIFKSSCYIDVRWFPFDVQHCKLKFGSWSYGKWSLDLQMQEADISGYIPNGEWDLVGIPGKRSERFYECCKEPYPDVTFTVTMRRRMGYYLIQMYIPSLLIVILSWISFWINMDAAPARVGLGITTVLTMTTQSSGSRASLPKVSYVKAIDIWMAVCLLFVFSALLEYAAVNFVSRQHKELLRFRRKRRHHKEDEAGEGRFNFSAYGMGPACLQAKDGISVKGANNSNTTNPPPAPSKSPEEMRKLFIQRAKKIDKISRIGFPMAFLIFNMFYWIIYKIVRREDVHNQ
UniProt P36544, with tags, fused parts or gaps W77F/Q79G/G175K: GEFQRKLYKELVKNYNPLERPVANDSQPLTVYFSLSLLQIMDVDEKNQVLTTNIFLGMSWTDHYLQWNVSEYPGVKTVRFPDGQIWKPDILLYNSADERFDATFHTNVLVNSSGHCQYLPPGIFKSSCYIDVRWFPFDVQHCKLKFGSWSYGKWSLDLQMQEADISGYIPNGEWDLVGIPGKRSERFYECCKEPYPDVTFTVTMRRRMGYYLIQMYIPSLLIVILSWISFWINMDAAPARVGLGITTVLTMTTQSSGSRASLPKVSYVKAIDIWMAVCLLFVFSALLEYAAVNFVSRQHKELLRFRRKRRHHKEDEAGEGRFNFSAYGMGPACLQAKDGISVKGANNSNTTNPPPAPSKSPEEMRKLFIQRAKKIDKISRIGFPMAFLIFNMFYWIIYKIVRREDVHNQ
UniProt P36544, with tags, fused parts or gaps Q79G/Y115F/G175K: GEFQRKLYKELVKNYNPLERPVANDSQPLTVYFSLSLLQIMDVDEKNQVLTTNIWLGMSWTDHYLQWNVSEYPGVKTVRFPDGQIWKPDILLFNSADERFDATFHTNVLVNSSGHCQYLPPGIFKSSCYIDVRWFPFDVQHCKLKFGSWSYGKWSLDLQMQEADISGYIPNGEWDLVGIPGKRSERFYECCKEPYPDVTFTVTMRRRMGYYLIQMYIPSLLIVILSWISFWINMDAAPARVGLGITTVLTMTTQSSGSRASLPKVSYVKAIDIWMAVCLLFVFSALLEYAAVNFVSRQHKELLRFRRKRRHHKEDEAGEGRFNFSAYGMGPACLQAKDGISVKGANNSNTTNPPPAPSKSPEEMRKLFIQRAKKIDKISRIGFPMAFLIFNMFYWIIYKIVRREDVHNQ
UniProt P36544, with tags, fused parts or gaps L131G: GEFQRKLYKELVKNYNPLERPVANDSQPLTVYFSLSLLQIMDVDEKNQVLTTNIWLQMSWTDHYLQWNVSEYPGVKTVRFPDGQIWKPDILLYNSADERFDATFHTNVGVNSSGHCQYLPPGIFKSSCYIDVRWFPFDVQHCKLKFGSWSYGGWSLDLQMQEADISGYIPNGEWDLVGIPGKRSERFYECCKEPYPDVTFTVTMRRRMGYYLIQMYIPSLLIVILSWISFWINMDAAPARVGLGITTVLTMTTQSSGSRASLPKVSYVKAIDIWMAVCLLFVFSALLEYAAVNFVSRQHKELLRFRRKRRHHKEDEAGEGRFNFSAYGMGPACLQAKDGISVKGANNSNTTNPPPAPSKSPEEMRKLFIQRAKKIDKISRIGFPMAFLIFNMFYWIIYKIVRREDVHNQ

Columns and labels:
α7-GlyR = target: T1, α7-GlyR (Homo sapiens, UniProt P36544); test: Agonist potency (EC50), HEK cells expressing chimeric channel; assay type: cell-based
T1 construct: expressed in transfected cells; host or cells: HEK cells

α7^Q79S,L131G-GlyR = target: T2, α7^Q79S,L131G-GlyR (Homo sapiens, UniProt P36544, L131G/Q79S); test: Agonist potency at chimeric channel (Table 9); assay type: cell-based; settings: α7GlyR Q79S L131G
T2 construct: expressed in transfected cells

[1] = target: T3, α7^L131G,Q139L,Y217F-GlyR (Homo sapiens, UniProt P36544, L131G/Q139L/Y217F); assay type: cell-based
T3 construct: expressed in transfected cells

α7^L131N-GlyR = target: T4, α7^L131N-GlyR (Homo sapiens, UniProt P36544, L131N); test: Agonist potency at chimeric channel (Table 9); assay type: cell-based; settings: α7GlyR L131N
T4 construct: expressed in transfected cells

α7GlyR Q79G L131G = target: T5, α7GlyR Q79G L131G (Homo sapiens, UniProt P36544, L131G/Q79G); test: Agonist potency at chimeric channel (Table 9); assay type: cell-based
T5 construct: expressed in transfected cells

[2] = target: T6, α7GlyR Q79S L131G Q139L Y217F (Homo sapiens, UniProt P36544, L131G/Q139L/Q79S/Y217F); assay type: cell-based; settings: read-out: Agonist potency
T6 construct: expressed in transfected cells

α7^L131M-GlyR = target: T7, α7^L131M-GlyR (Homo sapiens, UniProt P36544, L131M); test: Agonist potency at chimeric channel (Table 9); assay type: cell-based; settings: α7GlyR L131M
T7 construct: expressed in transfected cells

α7^L131Q-GlyR = target: T8, α7^L131Q-GlyR (Homo sapiens, UniProt P36544, L131Q); test: Agonist potency at chimeric channel (Table 9); assay type: cell-based; settings: α7GlyR L131Q
T8 construct: expressed in transfected cells

α7^L131F-GlyR = target: T9, α7^L131F-GlyR (Homo sapiens, UniProt P36544, L131F); test: Agonist potency at chimeric channel (Table 9); assay type: cell-based; settings: α7GlyR L131F
T9 construct: expressed in transfected cells

[3] = target: T10, α7^L131G,Q139L,Y217F-5HT3 HC (Homo sapiens, UniProt P36544, L131G/M226I/Q139L/T225I/Y217F); test: Agonist potency at chimeric channel (Table 9); assay type: cell-based
T10 construct: expressed in transfected cells

α7-5HT3 = target: T11, α7-5HT3 (Homo sapiens, UniProt P36544, M226I/T225I); test: Agonist potency (EC50), HEK cells expressing chimeric channel; assay type: cell-based, human α7 nAChR LBD, murine 5HT3 IPD; settings: Table 6; read-out: Potency, a7-5HT3
T11 construct: expressed in transfected cells; host or cells: HEK cells

α7^Y115F,G175K-GlyR = target: T12, α7^Y115F,G175K-GlyR (Homo sapiens, UniProt P36544, G175K/Y115F); test: Agonist potency at chimeric channel; assay type: cell-based; settings: Table 6; read-out: Potency, a7GlyR Y115F G175K
T12 construct: expressed in transfected cells

α7^W77F,Q79G,G175K-GlyR = target: T13, α7^W77F,Q79G,G175K-GlyR (Homo sapiens, UniProt P36544, G175K/Q79G/W77F); test: Agonist potency at chimeric channel; assay type: cell-based; settings: Table 6; read-out: Potency, a7GlyR W77F Q79G G175K
T13 construct: expressed in transfected cells

α7^Q79G,Y115F,G175K-GlyR = target: T14, α7^Q79G,Y115F,G175K-GlyR (Homo sapiens, UniProt P36544, G175K/Q79G/Y115F); test: Agonist potency at chimeric channel; assay type: cell-based; settings: Table 6; read-out: Potency, a7Gly Q79G G175K Y115F
T14 construct: expressed in transfected cells

α7^L131G-GlyR = target: T15, α7^L131G-GlyR (Homo sapiens, UniProt P36544, L131G); test: Agonist potency at chimeric channel (Table 9); assay type: cell-based
T15 construct: expressed in transfected cells

α7-GlyR^A298G = target: T16, α7-GlyR^A298G (Homo sapiens, UniProt P36544, A298G); test: Agonist potency (EC50), HEK cells expressing chimeric channel; assay type: cell-based; settings: read-out: Mean EC50 and SEM in parentheses, α7-GlyR^A298G
T16 construct: expressed in transfected cells; host or cells: HEK cells

α7^Y115F-GlyR G175V = target: T17, α7^Y115F-GlyR G175V (Homo sapiens, UniProt P36544, G175V/Y115F); test: Agonist potency at chimeric channel (Table 8); assay type: cell-based; settings: α7GlyR Y115F G175V
T17 construct: expressed in transfected cells

α7^L131G-5HT3 HC = target: T18, α7^L131G-5HT3 HC (Homo sapiens, UniProt P36544, L131G, form not given); test: Agonist potency at chimeric channel (Table 9); assay type: cell-based
T18 construct: rows headed: Agonist potency; other: α75HT3 L131G HC; α75HT3 L131G HC; fused on or other part: 5-HT3A receptor ion pore domain at the C-terminus

α7^L131G,Q139L-GlyR = target: T19, α7^L131G,Q139L-GlyR (Homo sapiens, UniProt P36544, L131G/Q139L); test: Agonist potency at chimeric channel (Table 9); assay type: cell-based
T19 construct: expressed in transfected cells

α7^L131G,Y217F-GlyR = target: T20, α7^L131G,Y217F-GlyR (Homo sapiens, UniProt P36544, L131G/Y217F); test: Agonist potency at chimeric channel (Table 9); assay type: cell-based
T20 construct: expressed in transfected cells

α7^Q79S,L131G,Q139L-GlyR = target: T21, α7^Q79S,L131G,Q139L-GlyR (Homo sapiens, UniProt P36544, L131G/Q139L/Q79S); assay type: cell-based; settings: read-out: Agonist potency
T21 construct: expressed in transfected cells

[4] = α7GlyR (Table 9), parentheses: SEM, read-out: Agonist potency
[5] = α7GlyR L131G Q139L Y217F, parentheses: SEM, read-out: Agonist potency
[6] = α7GlyR Q79S L131G Q139L Y217F, parentheses: SEM
[7] = read-out: potency at α7^L131G,Q139L,Y217F-GlyR
[8] = Table 6, read-out: Potency, a7-GlyR

Compound	pEC50 (α7-GlyR; [4])	pEC50 [1, 5]	pEC50 (α7^L131N-GlyR)	pEC50 [2, 6]	pEC50 [1, 7]	pEC50 (α7^L131M-GlyR)	pEC50 (α7^L131Q-GlyR)	pEC50 (α7^L131F-GlyR)	pEC50 [3]	pEC50 (α7-5HT3)	pEC50 (α7-GlyR; [8])	pEC50 (α7^Y115F,G175K-GlyR)	pEC50 (α7^W77F,Q79G,G175K-GlyR)	pEC50 (α7^Q79G,Y115F,G175K-GlyR)	pEC50 (α7^L131G-GlyR; α7GlyR L131G)	further results
c1ccc(-c2cnc3cc4c(cc3n2)C2CNCC4C2)cc1 (stereo not shown) [Compound 765]	< 4.00	7.51	< 5.00	7.47												pEC50 (α7^Q79S,L131G-GlyR): 7.62; pEC50 (α7GlyR Q79G L131G): 7.57
Cc1nc2cc3c(cc2nc1-c1ccccc1)C1CNCC3C1 (stereo not shown) [Compound 770]			< 5.00	9.00	9.00	7.52	< 6.52	7.47	8.15							
O=S1(=O)c2cc(N3CCN4CCC3CC4)ccc2-c2cccc(F)c21 [Compound 773]	9.00		9.40		9.47	10.30	8.22	9.30	8.70	6.87	9.00	9.52	8.85	9.38	9.89	
O=[N+]([O-])c1cccc2c1S(=O)(=O)c1cc(N3CCN4CCC3CC4)ccc1-2 [Compound 774]	8.22	9.74	9.22		9.89	9.00	8.70	8.89	8.40	7.52	8.22	9.11	7.52	7.52	10.40	
c1cnc2cc3c(cc2n1)[C@@H]1CNC[C@H]3C1 [Varenicline]																pEC50 (α7-GlyR^A298G): 6.60; pEC50 (α7^Y115F-GlyR G175V): 5.34; pEC50 (α7^L131G-GlyR): 7.43; pEC50 (α7^L131G-5HT3 HC): 7.40; pEC50 (α7^L131G,Q139L-GlyR): 7.52; pEC50 (α7^L131G,Y217F-GlyR): 7.52; pEC50 ([1]; read-out: Agonist potency): 8.80; pEC50 (α7^Q79S,L131G,Q139L-GlyR): 7.70; pEC50 [2]: 8.52
